Common to all, as to assay type: biochemical
The target of test [1] is MCH-2 (Homo sapiens, UniProt P55212). Description: Dissociation constant Ki and irreversible rate constant k3 for irreversible inhibitors (Mch2).
For test [2], the target named is mICE (Mus musculus, UniProt P29452). Description: Dissociation constant Ki and irreversible rate constant k3 for irreversible inhibitors (ICE).
Test [3] concerns the target MCH-5 (Homo sapiens, UniProt Q14790). Kind of test: Dissociation constant Ki and irreversible rate constant k3 for irreversible inhibitors (Mch5).
The target of test [4] is CPP32 (Homo sapiens, UniProt P42574). Kind of test: Dissociation constant Ki and irreversible rate constant k3 for irreversible inhibitors (CPP32).

Protein sequences, listed by entry. Tags and fused reporters are not part of them. Residues count along the entry.
UniProt P55212, 24-179 limits assumed: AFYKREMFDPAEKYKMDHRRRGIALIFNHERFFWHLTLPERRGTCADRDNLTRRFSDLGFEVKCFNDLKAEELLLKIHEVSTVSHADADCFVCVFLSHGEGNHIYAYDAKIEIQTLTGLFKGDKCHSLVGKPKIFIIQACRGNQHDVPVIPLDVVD
UniProt P55212, 194-293 limits assumed: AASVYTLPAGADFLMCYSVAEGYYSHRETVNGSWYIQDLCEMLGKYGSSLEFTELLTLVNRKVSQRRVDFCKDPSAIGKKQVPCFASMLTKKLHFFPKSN
UniProt P29452, 123-296 limits assumed: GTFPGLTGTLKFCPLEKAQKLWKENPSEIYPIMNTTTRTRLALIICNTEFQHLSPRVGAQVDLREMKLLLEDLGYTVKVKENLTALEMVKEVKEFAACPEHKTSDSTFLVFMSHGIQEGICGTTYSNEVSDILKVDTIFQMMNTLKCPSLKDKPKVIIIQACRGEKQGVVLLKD
UniProt P29452, 315-402 limits assumed: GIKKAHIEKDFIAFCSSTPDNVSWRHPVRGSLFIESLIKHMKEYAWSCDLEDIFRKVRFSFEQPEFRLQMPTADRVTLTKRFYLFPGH
UniProt Q14790, 217-374 limits assumed: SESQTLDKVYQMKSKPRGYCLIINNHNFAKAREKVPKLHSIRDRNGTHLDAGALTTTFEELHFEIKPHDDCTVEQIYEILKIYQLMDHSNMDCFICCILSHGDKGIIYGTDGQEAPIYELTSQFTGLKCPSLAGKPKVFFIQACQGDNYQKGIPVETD
UniProt Q14790, 385-479 limits assumed: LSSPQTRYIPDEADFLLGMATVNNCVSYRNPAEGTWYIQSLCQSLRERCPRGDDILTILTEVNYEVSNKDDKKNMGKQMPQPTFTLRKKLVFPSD
UniProt P42574, 29-175 limits assumed: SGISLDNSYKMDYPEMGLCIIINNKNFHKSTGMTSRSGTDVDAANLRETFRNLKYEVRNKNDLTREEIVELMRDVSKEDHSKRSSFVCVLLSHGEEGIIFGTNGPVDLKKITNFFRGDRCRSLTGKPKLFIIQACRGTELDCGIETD
UniProt P42574, 176-277 limits assumed: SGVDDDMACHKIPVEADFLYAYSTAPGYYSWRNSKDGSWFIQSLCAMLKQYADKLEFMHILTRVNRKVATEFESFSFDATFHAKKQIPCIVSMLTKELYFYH

The structures appear in SMILES notation.

Regarding `C[C@H](NC(=O)C(=O)Nc1cccc2cc3ccccc3cc12)C(=O)N[C@@H](CC(=O)O)C(=O)COC(=O)c1c(Cl)cccc1Cl`, the “MCH-2 k3/Ki” value in test [1] is on record as 143,000 moles^−1 seconds^−1. Moreover, the Ki in test [1] (read-out: MCH-2 Ki) is 0.022 µM; in test [2] (read-out: mICE Ki), 0.108 µM; in test [3] (read-out: MCH-5 Ki) it was 0.025 µM; in test [4] (read-out: CPP32 Ki) it was 0.05 µM. Moreover, the “mICE k3/Ki” value in test [2] was 126,000 moles^−1 seconds^−1. In test [3], the “MCH-5 k3/Ki” value was 92,600 moles^−1 seconds^−1. For the same molecule, in test [4], the “CPP32 k3/Ki” value is recorded as 165,000 moles^−1 seconds^−1.

For the origin of these results see patent US7183260B2, “C-terminal modified oxamyl dipeptides as inhibitors of the ICE/ced-3 family of cysteine proteases” (Idun Pharmaceuticals, Inc., priority 1998, dated 2007).
